The target in the experiment is EcPDF (Escherichia coli, UniProt P0A6K3). The settings on record: read-out: EcPDF IC50, FP assay; dose response, 12 point doubling dilutions, upper limit 100 μM.

Protein sequences, listed by entry. Tags and fused reporters are not part of them. Lines headed by an entry give the natural chain unless they say otherwise; changes in a name come on top.
UniProt P0A6K3: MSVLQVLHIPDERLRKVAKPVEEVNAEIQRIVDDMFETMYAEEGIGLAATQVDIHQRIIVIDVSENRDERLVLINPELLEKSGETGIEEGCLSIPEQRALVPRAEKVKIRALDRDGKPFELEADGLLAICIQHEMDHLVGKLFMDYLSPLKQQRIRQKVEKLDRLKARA

Molecules are shown by their SMILES. pIC50: −log10 of the molar value.

What is called pIC50 is −log10 of the IC50, conventionally taken in molar units. Consider `COc1ccc(C(=O)c2coc3c2C(=O)C(=O)C(Cl)=C3Cl)cc1OC` [SKC-BF-10, 6,7-Dichloro-3-(3,4-dimethoxy-benzoyl)-benzofuran-4,5-dione], for which the pIC50 is 4.17.

Values taken from patent publication US8614237B2, “Benzofuran-4,5-diones as selective peptide deformylase inhibitors” (Sloan-Kettering Institute for Cancer Research, priority 2009, dated 2013).
